{"sequences": {"note": "Chains of the proteins cited; added tags and fusions are not shown.", "UniProt P80244, whole entry": "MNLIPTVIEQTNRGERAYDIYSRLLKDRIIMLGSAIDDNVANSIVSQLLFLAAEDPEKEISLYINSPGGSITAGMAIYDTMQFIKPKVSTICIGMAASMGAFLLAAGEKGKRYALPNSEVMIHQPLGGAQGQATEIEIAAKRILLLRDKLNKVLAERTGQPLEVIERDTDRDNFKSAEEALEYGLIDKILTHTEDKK"}, "source": "PubChem BioAssay AID651965", "about": "(National Center for Advancing Translational Sciences (NCATS), 2013)", "note": "The list shows a part of the results, in another mix than the full data. Records with an inconclusive call do not appear. Entries that show only a call come without a potency. Some salts and complexes are drawn in separate pieces, as the source files them; their charges need not balance. Calls of active or inactive are those of the source. Calls follow the shape of the dose curve; as a rule, active = well fitted falling curve with a large enough effect; inconclusive = small, poorly fitted or top-dose-only effect; inactive = no such curve, though single readings can be large or run the other way. Potency is read from the fitted curve at half-maximal effect."}
{"target": "ATP-dependent Clp protease proteolytic subunit (Bacillus subtilis (strain 168)) (UniProt P80244)", "experiment": "qHTS Assay for Activators of ClpP; also: the source files actives as falling curves though it sought activators and does not explain the sign; nearly all actives have a fitted effect of over 65% in size", "settings": "purified B. subtilis ClpP, FRET peptide cleavage, 20 min; series mostly up to 57.5 µM"}
{"smiles": "CCC(c1nnnn1C1CCCC1)N1CCC(n2c(=O)[nH]c3ccccc32)CC1", "note": "(stereo not given)", "Potency": "inactive"}
{"smiles": "CC(C)(C)OC(=O)N1CCC(N(C(=O)c2ccccc2)c2ccc(F)cc2)CC1", "Potency": "inactive"}
{"smiles": "O=C(NCC1(N2CCCCC2)CCCCC1)c1ccc(=O)[nH]c1", "Potency": "inactive"}
{"smiles": "CCCCn1nnnc1C(c1cccs1)N1CCC(n2c(=O)[nH]c3ccccc32)CC1", "note": "(stereo not given)", "Potency": "inactive"}
{"smiles": "CCCCn1nnnc1C(CC)N1CCC(n2c(=O)[nH]c3ccccc32)CC1", "note": "(stereo not given)", "Potency": "inactive"}
{"smiles": "O=C(NCC1(N2CCCCC2)CCCCC1)c1cccs1", "Potency": "inactive"}
{"smiles": "Cc1cccc(NC2(C#N)CCN(Cc3ccccc3)CC2)c1", "Potency": "inactive"}
{"smiles": "O=c1[nH]c2ccccc2n1C1CCN(C(c2ccccc2OC(F)(F)F)c2nnnn2C2CCCCC2)CC1", "note": "(stereo not given)", "Potency": "inactive"}
{"smiles": "O=C(NCC1(N2CCOCC2)CCCCC1)c1cc2ccccc2o1", "Potency": "inactive"}
{"smiles": "O=C(OC1CN2CCC1CC2)C1c2ccccc2Oc2ccccc21", "note": "(stereo not given)", "Potency": "inactive"}
{"smiles": "O=c1[nH]c2ccccc2n1C1CCN(C(c2cc3ccccc3o2)c2nnnn2C2CCCCC2)CC1", "note": "(stereo not given)", "Potency": "inactive"}
{"smiles": "O=C(NCC1(N2CCCCC2)CCCCC1)c1ccc(Cl)s1", "Potency": "inactive"}
{"smiles": "COc1ccc(Cl)cc1C(=O)NCC1(N2CCOCC2)CCCCC1", "Potency": "inactive"}
{"smiles": "CCOC(=O)N1CCC(Nc2ccc(OC)cc2)CC1", "Potency": "inactive"}
{"smiles": "CCCCn1nnnc1C(c1ccc(OC)cc1)N1CCC(n2c(=O)[nH]c3ccccc32)CC1", "note": "(stereo not given)", "Potency": "inactive"}
{"smiles": "CC(C)(C)n1nnnc1C(c1ccccc1)N1CCC(n2c(=O)[nH]c3ccccc32)CC1", "note": "(stereo not given)", "Potency": "inactive"}
{"smiles": "O=C(NCC1(N2CCOCC2)CCCCC1)c1ccc(Cl)cc1", "Potency": "inactive"}
{"smiles": "O=C1CCN(Cc2ccccc2)CC1", "Potency": "inactive"}
{"smiles": "CCOc1ccc(C)cc1CN(CCCl)CCCl", "Potency": "inactive"}
{"smiles": "COc1ccccc1C(=O)NCC1(N2CCOCC2)CCCCC1", "Potency": "inactive"}
{"smiles": "CCCCn1nnnc1C(c1cc2ccccc2o1)N1CCC(n2c(=O)[nH]c3ccccc32)CC1", "note": "(stereo not given)", "Potency": "inactive"}
{"smiles": "CCCCOc1ccc(C(=O)NCC2(N3CCOCC3)CCCCC2)cc1", "Potency": "inactive"}
{"smiles": "COc1ccc(NC2CCN(CCc3ccccc3)CC2)c(OC)c1", "Potency": "inactive"}
{"smiles": "CCOC(=O)N1CCC(Nc2ccc(F)cc2)CC1", "Potency": "inactive"}
{"smiles": "O=c1[nH]c2ccccc2n1C1CCN(C(c2ccccc2)c2nnnn2C2CCCCC2)CC1", "note": "(stereo not given)", "Potency": "inactive"}
{"smiles": "CCOC(=O)N1CCC(Nc2cccc(C)c2)CC1", "Potency": "inactive"}
{"smiles": "O=c1[nH]c2ccccc2n1C1CCN(C(c2cccc3ccccc23)c2nnnn2C2CCCC2)CC1", "note": "(stereo not given)", "Potency": "inactive"}
{"smiles": "CC(C)(C)n1nnnc1C(c1ccccc1OC(F)(F)F)N1CCC(n2c(=O)[nH]c3ccccc32)CC1", "note": "(stereo not given)", "Potency": "inactive"}
{"smiles": "CCN1CCC(Nc2ccc(Cl)cc2)CC1", "Potency": "inactive"}
{"smiles": "N#CC1(Nc2ccccc2)CCN(CCc2ccccc2)CC1", "Potency": "inactive"}
{"smiles": "O=c1[nH]c2ccccc2n1C1CCN(C(c2ccccc2OC(F)(F)F)c2nnnn2C2CCCC2)CC1", "note": "(stereo not given)", "Potency": "inactive"}
{"smiles": "CSc1ccc(C(=O)NCC2(N3CCOCC3)CCCCC2)cc1", "Potency": "inactive"}
{"smiles": "CCOc1ccc(C(=O)NCC2(N3CCOCC3)CCCCC2)cc1", "Potency": "inactive"}
{"smiles": "O=C(NCC1(N2CCCCC2)CCCCC1)c1cccc([N+](=O)[O-])c1", "Potency": "inactive"}
{"smiles": "CCCOc1cccc(C(=O)NCC2(N3CCOCC3)CCCCC2)c1", "Potency": "inactive"}
{"smiles": "O=C(NCC1(N2CCOCC2)CCCCC1)c1cc(=O)[nH]c2ccccc12", "Potency": "inactive"}
{"smiles": "CCCCn1nnnc1C(c1cccc2ccccc12)N1CCC(n2c(=O)[nH]c3ccccc32)CC1", "note": "(stereo not given)", "Potency": "inactive"}
{"smiles": "COc1ccc(NC2CCN(C(=O)OC(C)(C)C)CC2)cc1", "Potency": "inactive"}
{"smiles": "CC(C)c1ccc(C(=O)NCC2(N3CCOCC3)CCCCC2)cc1", "Potency": "inactive"}
{"smiles": "CCCCn1nnnc1C(c1ccccc1OC(F)(F)F)N1CCC(n2c(=O)[nH]c3ccccc32)CC1", "note": "(stereo not given)", "Potency": "inactive"}
{"smiles": "O=[N+]([O-])c1cc([N+](=O)[O-])c(OC2CCCCC2O)c([N+](=O)[O-])c1", "note": "(stereo not given)", "Potency": "inactive"}
{"smiles": "CN(C)c1cccc(C(=O)NCC2(N3CCCCC3)CCCCC2)c1", "Potency": "inactive"}
{"smiles": "COc1cc(OC)c(C(=O)NCC2(N(C)C)CCCCC2)cc1OC", "Potency": "inactive"}
{"smiles": "CCC(c1nnnn1C(C)(C)C)N1CCC(n2c(=O)[nH]c3ccccc32)CC1", "note": "(stereo not given)", "Potency": "inactive"}
{"smiles": "O=C(NCC1(N2CCOCC2)CCCCC1)c1cc(F)c(F)cc1Cl", "Potency": "inactive"}
{"smiles": "CCN(CC)CCCNc1ccccc1[N+](=O)[O-].O=[N+]([O-])c1cc([N+](=O)[O-])c(O)c([N+](=O)[O-])c1", "Potency": "inactive"}
{"smiles": "CCCCn1nnnc1C(c1ccnc2ccccc12)N1CCC(n2c(=O)[nH]c3ccccc32)CC1", "note": "(stereo not given)", "Potency": "inactive"}
{"smiles": "O=C(NCC1(N2CCCCC2)CCCCC1)c1cncc(Br)c1", "Potency": "inactive"}
{"smiles": "COc1ccc2c(c1O)-c1c(O)c(OC)cc3c1[C@H](C2)[N+](C)(C)CC3.O=[N+]([O-])c1cc([N+](=O)[O-])c([O-])c([N+](=O)[O-])c1[O-]", "Potency": "inactive"}
{"smiles": "O=[N+]([O-])c1cc([N+](=O)[O-])c(Nc2ccc(Cl)cc2)c([N+](=O)[O-])c1", "Potency": "inactive"}
{"smiles": "COc1ccc(C(c2nnnn2C2CCCC2)N2CCC(n3c(=O)[nH]c4ccccc43)CC2)cc1", "note": "(stereo not given)", "Potency": "inactive"}
{"smiles": "Cc1ccc(C(=O)NCC2(N(C)C)CCCCC2)o1", "Potency": "inactive"}
{"smiles": "CCCCOc1ccccc1C(=O)NCC1(N2CCOCC2)CCCCC1", "Potency": "inactive"}
{"smiles": "O=C(NCC1(N2CCOCC2)CCCCC1)c1ccccc1Br", "Potency": "inactive"}
{"smiles": "CCCCn1nnnc1C(c1ccccc1)N1CCC(n2c(=O)[nH]c3ccccc32)CC1", "note": "(stereo not given)", "Potency": "inactive"}
{"smiles": "COc1cc(C(=O)NCC2(N3CCOCC3)CCCCC2)cc(OC)c1C", "Potency": "inactive"}
{"smiles": "O=C(NCC1(N2CCOCC2)CCCCC1)c1cc(Br)ccc1Cl", "Potency": "inactive"}
{"smiles": "O=c1[nH]c2ccccc2n1C1CCN(C(c2cccs2)c2nnnn2C2CCCCC2)CC1", "note": "(stereo not given)", "Potency": "inactive"}
{"smiles": "O=Cc1ccc(N(CCCl)CCCl)cc1", "Potency": "inactive"}
{"smiles": "COc1ccc(C(=O)NCC2(N3CCOCC3)CCCCC2)cc1OC", "Potency": "inactive"}
{"smiles": "O=c1[nH]c2ccccc2n1C1CCN(C(c2ccnc3ccccc23)c2nnnn2C2CCCC2)CC1", "note": "(stereo not given)", "Potency": "inactive"}
{"smiles": "COc1cccc(C(c2nnnn2C(C)(C)C)N2CCC(n3c(=O)[nH]c4ccccc43)CC2)c1OC", "note": "(stereo not given)", "Potency": "inactive"}
{"smiles": "CCOC(=O)N1CCC(Nc2ccc(C)cc2)CC1", "Potency": "inactive"}
{"smiles": "N/C(=N\\O)c1c(N)no[n+]1[O-]", "Potency": "inactive"}
{"smiles": "O=C(OC1CN2CCC1CC2)C1c2ccccc2C=Cc2ccccc21", "note": "(stereo not given)", "Potency": "active: 11.2 µM"}
{"smiles": "O=C(O)c1cccc(Nc2c([N+](=O)[O-])cc([N+](=O)[O-])cc2[N+](=O)[O-])c1", "Potency": "inactive"}
{"smiles": "O=c1[nH]c2ccccc2n1C1CCN(C(c2cccs2)c2nnnn2C2CCCC2)CC1", "note": "(stereo not given)", "Potency": "inactive"}
{"smiles": "CCCCn1nnnc1C(c1cccc(OC)c1OC)N1CCC(n2c(=O)[nH]c3ccccc32)CC1", "note": "(stereo not given)", "Potency": "inactive"}
{"smiles": "O=C(NCC1(N2CCOCC2)CCCCC1)c1ccccc1[N+](=O)[O-]", "Potency": "inactive"}
{"smiles": "O=C(NCC1(N2CCOCC2)CCCCC1)c1ccc([N+](=O)[O-])cc1", "Potency": "inactive"}
{"smiles": "CCOC(=O)C(CC)C1=NC(C)(C)Cc2ccccc21.O=[N+]([O-])c1cc([N+](=O)[O-])c(O)c([N+](=O)[O-])c1", "note": "(stereo not given)", "Potency": "inactive"}
{"smiles": "CN(C)C1(CNC(=O)c2cccc(C#N)c2)CCCCC1", "Potency": "inactive"}
{"smiles": "c1ccc(CN2CCC(Nc3ccccc3)CC2)cc1", "Potency": "inactive"}
{"smiles": "O=c1[nH]c2ccccc2n1C1CCN(C(c2ccccc2)c2nnnn2C2CCCC2)CC1", "note": "(stereo not given)", "Potency": "inactive"}
{"smiles": "CCCN1CCC(Nc2cc(OC)cc(OC)c2)CC1", "Potency": "inactive"}
{"smiles": "Cc1cc(N(CCCl)CCCl)ccc1C=O", "Potency": "inactive"}
{"smiles": "O=C(NCC1(N2CCOCC2)CCCCC1)c1ccccc1", "Potency": "inactive"}
{"smiles": "CC(C)(C)n1nnnc1C(c1cccc2ccccc12)N1CCC(n2c(=O)[nH]c3ccccc32)CC1", "note": "(stereo not given)", "Potency": "inactive"}
{"smiles": "COc1cccc(C(c2nnnn2C2CCCCC2)N2CCC(n3c(=O)[nH]c4ccccc43)CC2)c1OC", "note": "(stereo not given)", "Potency": "inactive"}
{"smiles": "CN(C)C1(CNC(=O)c2ccc(C(C)(C)C)cc2)CCCCC1", "Potency": "inactive"}
{"smiles": "CCC(c1nnnn1C1CCCCC1)N1CCC(n2c(=O)[nH]c3ccccc32)CC1", "note": "(stereo not given)", "Potency": "inactive"}
{"smiles": "O=c1[nH]c2ccccc2n1C1CCN(C(c2ccnc3ccccc23)c2nnnn2C2CCCCC2)CC1", "note": "(stereo not given)", "Potency": "inactive"}
{"smiles": "Cc1ccc(C(=O)NCC2(N3CCCCC3)CCCCC2)o1", "Potency": "inactive"}
{"smiles": "Cc1ccc(Nc2c([N+](=O)[O-])cc([N+](=O)[O-])cc2[N+](=O)[O-])cc1", "Potency": "inactive"}
{"smiles": "Fc1ccccc1NC1CCN(Cc2ccccc2)CC1", "Potency": "inactive"}
{"smiles": "Cc1ccc(NC2(C#N)CCN(Cc3ccccc3)CC2)cc1", "Potency": "inactive"}
{"smiles": "CC(C)(C)n1nnnc1C(c1ccnc2ccccc12)N1CCC(n2c(=O)[nH]c3ccccc32)CC1", "note": "(stereo not given)", "Potency": "inactive"}
{"smiles": "COc1ccc(C(c2nnnn2C2CCCCC2)N2CCC(n3c(=O)[nH]c4ccccc43)CC2)cc1", "note": "(stereo not given)", "Potency": "inactive"}
{"smiles": "CCN1CCC(Nc2cccc(F)c2)CC1", "Potency": "inactive"}
{"smiles": "Cc1ccccc1C(=O)NCC1(N(C)C)CCCCC1", "Potency": "inactive"}
{"smiles": "CC(C)(C)c1ccc(C(=O)NCC2(N3CCOCC3)CCCCC2)cc1", "Potency": "inactive"}
{"smiles": "O=C(NCC1(N2CCCCC2)CCCCC1)c1ccco1", "Potency": "inactive"}
{"smiles": "Cn1c(=O)[nH]cc(N(CCCl)CCCl)c1=O", "Potency": "inactive"}
{"smiles": "CCOc1ncccc1C(=O)NCC1(N2CCOCC2)CCCCC1", "Potency": "inactive"}
{"smiles": "CN1CCC(Nc2ccc(F)c(Cl)c2)CC1", "Potency": "inactive"}
{"smiles": "O=C(O)C1(Nc2ccccc2)CCN(Cc2ccccc2)CC1", "Potency": "inactive"}
{"smiles": "ClCCN(CCCl)c1ccc(C=C2C=CC=C2)cc1", "Potency": "inactive"}
{"smiles": "NN(c1ccccc1)C1CCN(CCc2ccccc2)CC1", "Potency": "inactive"}
{"smiles": "ClCCN(CCCl)c1ccccc1", "Potency": "inactive"}
{"smiles": "CCCOc1ccc(C(=O)NCC2(N(C)C)CCCCC2)cc1", "Potency": "inactive"}
{"smiles": "O=c1[nH]c2ccccc2n1C1CCN(C(c2cc3ccccc3o2)c2nnnn2C2CCCC2)CC1", "note": "(stereo not given)", "Potency": "inactive"}
{"smiles": "COc1cc(C(=O)NCC2(N3CCOCC3)CCCCC2)cc(OC)c1OC", "Potency": "inactive"}
{"smiles": "COc1cccc(C(c2nnnn2C2CCCC2)N2CCC(n3c(=O)[nH]c4ccccc43)CC2)c1OC", "note": "(stereo not given)", "Potency": "inactive"}
{"smiles": "CCC(CO)(C(=O)OC1CN2CCC1CC2)c1ccccc1", "note": "(stereo not given)", "Potency": "inactive"}
{"smiles": "CN1CCC(Nc2ccc(Cl)cc2)CC1", "Potency": "inactive"}
